Measurements published in US12404241B2 (Celgene Corporation, priority 2018, dated 2025).

Sequences of proteins named here, by UniProt entry; tags and fusion partners are left off.
UniProt P10275, whole entry: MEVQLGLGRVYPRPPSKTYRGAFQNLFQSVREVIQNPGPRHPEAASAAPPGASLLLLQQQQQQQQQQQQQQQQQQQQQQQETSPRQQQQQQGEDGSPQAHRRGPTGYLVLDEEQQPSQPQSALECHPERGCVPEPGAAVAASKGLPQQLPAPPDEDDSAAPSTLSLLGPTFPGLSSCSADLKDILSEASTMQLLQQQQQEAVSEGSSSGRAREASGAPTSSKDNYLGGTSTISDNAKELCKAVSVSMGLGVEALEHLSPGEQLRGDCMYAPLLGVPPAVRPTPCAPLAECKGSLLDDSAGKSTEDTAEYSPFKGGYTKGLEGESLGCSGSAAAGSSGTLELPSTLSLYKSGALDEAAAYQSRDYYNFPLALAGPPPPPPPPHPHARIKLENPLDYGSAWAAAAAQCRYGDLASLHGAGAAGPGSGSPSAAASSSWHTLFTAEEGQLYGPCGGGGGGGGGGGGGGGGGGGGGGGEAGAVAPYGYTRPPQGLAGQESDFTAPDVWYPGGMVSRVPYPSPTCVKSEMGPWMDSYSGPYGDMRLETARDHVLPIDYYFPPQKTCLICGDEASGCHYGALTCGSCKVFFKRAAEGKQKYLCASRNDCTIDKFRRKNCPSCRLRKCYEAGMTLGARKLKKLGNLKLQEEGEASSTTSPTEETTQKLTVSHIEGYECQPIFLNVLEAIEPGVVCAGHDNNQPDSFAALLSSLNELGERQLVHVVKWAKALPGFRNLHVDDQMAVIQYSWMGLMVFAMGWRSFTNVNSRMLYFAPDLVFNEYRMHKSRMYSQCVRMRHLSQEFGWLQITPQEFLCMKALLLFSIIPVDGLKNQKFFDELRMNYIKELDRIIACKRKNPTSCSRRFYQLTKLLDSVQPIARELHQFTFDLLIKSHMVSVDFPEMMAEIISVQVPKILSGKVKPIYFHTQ

Target: AR (Homo sapiens, UniProt P10275)
Test: VCAP AR Degradation Assay
Procedure: VCAP AR Degradation Assay. Test compounds were pre-dispensed into a Corning CellBind 96-well clear bottom plate (Cat #3300) using an acoustic dispenser to make a 10-point concentration series at 1:3 dilution for each compound. The final top concentration of each compound was 5 μM. DMSO at a final concentration of 0.1% was used as a control. VCaP cells cultured in DMEM with 8% fetal bovine serum (FBS) were seeded at 50K cells per well in a 200 μL volume into the compound plate and incubated at 37° C. in a CO2 incubator for 24 h. The medium was carefully removed from the cells and the plate was placed on ice. […] AR levels in compound-treated wells were normalized to that of DMSO control and expressed as percent of control (PoC) (y). […]
[formula] • A=YMin (lowest AR level normalized to DMSO control in response to compound treatment, as determined by curve fit) • B=YMax (maximum AR level as determined by curve fit) • C=EC50 • D=Hill Slope • x=compound concentration • EC50=the concentration of compound when y=(YMax−YMin)/2 • DC50=the concentration of the compound when y=50% of DMSO control (50% AR degradation) • y=AR protein level normalized to DMSO control
The lowest measured AR level normalized to DMSO control in response to compound treatment, termed Y value, was used to characterize the compound-mediated AR degradation efficiency.

## C[C@@H]1CN(CCOc2ccc(N3C(=S)N(c4ccc(C#N)c(Cl)c4)C(=O)C3(C)C)cc2Cl)C[C@H](C)N1CC(=O)Nc1cccc(NC2CCC(=O)NC2=O)c1 (some centres unmarked)
Class symbols *, **
  Y (AR degradation efficiency, % of DMSO control): * (0<Y<=25%)
Class symbols A-C
  DC50: < 0.1 µM
